Laboratory results: PubChem BioAssay AID1775 (NMMLSC, 2009)
Values joined by “and” are separate entries in the source; they are usually repeats but may differ in a detail not shown here. Identical values can stand only once. The list shows a part of the results, in another mix than the full data. Active and inactive are the calls of the source. Cut-off read from the data, not from the text of the source: active = fluorescence above about 47; inactive = the rest.

Test: green autofluorescence of compounds with avidin beads – biophysical, 488/530 nm, flow cytometry, artefact control, profiling panel (AID 1775)
Conditions: compound fluorescence 488/530 nm, at 10 µM, hits give high values

Row | Compound | fluorescence (KMESF)
1 | Nc1cccc2ccc([As](=O)(O)O)cc12 | inactive: 5
2 | CCN(N=Nc1nonc1N)c1nonc1N | inactive: 16
3 | O=P(Nc1nc2ccc(Cl)cc2s1)(c1ccccc1)c1ccccc1 | inactive: 7
4 | O=C(O)c1ccccc1[As](=O)(O)O | inactive: 5
5 | CC(=O)Nc1ccc([As](=O)(O)O)cc1 | inactive: 3
6 | CCOP(=O)(Nc1ccccc1)OCC | inactive: 14 and inactive: 3
7 | Cc1cc(SC(NC(=O)c2ccc(F)cc2)C(Cl)(Cl)Cl)ncn1 (stereo not given) | inactive: 13
8 | Cc1ccc(NP(=O)(Oc2ccccc2F)Oc2ccccc2F)nc1 | inactive: 8
9 | Oc1ccccc1CNc1ccccn1 | inactive: 13
10 | Cc1c2non([O-])c-2c(C)[n+](=O)[n+]1[O-] | inactive: 26
11 | O=C(NC(Sc1ccncn1)C(Cl)(Cl)Cl)c1ccccc1 (stereo not given) | inactive: 3
12 | CC(C)CC(=O)NC(Sc1ccc(Cl)cc1)C(Cl)(Cl)Cl (stereo not given) | inactive: 8
13 | Nc1cc(N)c2nonc2c1[N+](=O)[O-] | inactive: 8
14 | Cc1ccc(N/C(=N/P(=O)(N2CCOCC2)N2CCOCC2)N2CCOCC2)cc1 | inactive: 15
15 | NC(=O)c1cc([N+](=O)[O-])cc([N+](=O)[O-])c1N | inactive: 12
16 | Clc1ccc(Cl)c(NC2=NCC(CBr)S2)c1 (stereo not given) | inactive: 6
17 | CN1CCCC(OC(=O)C(c2ccccc2)c2ccccc2)C1 (stereo not given) | inactive: 18
18 | COc1ccccc1OP(=O)(Nc1ccc(C)cn1)Oc1ccccc1OC | inactive: 9
19 | Cc1ccc(OP(=O)(Nc2nccs2)Oc2ccc(C)cc2)cc1 | inactive: 8
20 | CCN(/C(=N/P(=O)(N1CCOCC1)N1CCOCC1)N1CCOCC1)c1ccc(OC)cc1 | inactive: 26
21 | Nc1ccc([As](=O)(O)c2ccc(N)cc2)cc1 | inactive: 2
22 | C[N+]1=C2C=CC=CC=C2SC12C([N+](=O)[O-])=CC([N+](=O)[O-])=C[C-]2[N+](=O)[O-] (stereo not given) | inactive: 6
23 | CC1CCN(C(=O)Oc2c(Cl)cc(Cl)c3cccnc23)CC1 | inactive: 11
24 | CC(C)=N/N=C(\N)N[N+](=O)[O-] | inactive: 5

Row | Compound | fluorescence (KMESF)
25 | CN(C)C(=O)OCCc1n(C)cc[n+]1C | inactive: 3
26 | COc1ccc(C2=NCC(CBr)S2)cc1 (stereo not given) | inactive: 10
27 | Cc1ccc(NP(=O)(Oc2ccccc2)Oc2ccccc2)nc1 | inactive: 11
28 | CCc1nc2c(n1)c1c(non1O)c1c2no[n+]1[O-] | inactive: 17
29 | O=[N+]([O-])c1cc([N+](=O)[O-])c(CCNc2ccccc2)c([N+](=O)[O-])c1 | inactive: 9
30 | O=[N+]([O-])c1cccc2n[nH]nc12 | inactive: 5
31 | CC(=O)N1C2C3N(C(C)=O)C1C1N(C(C)=O)C(C(N1C(C)=O)N3C(C)=O)N2C(C)=O | inactive: 4
32 | O=[N+]([O-])c1ncn(CCn2ncnc2[N+](=O)[O-])n1 | inactive: 11
33 | CC(C)(C)C(=O)NC(Sc1ccncn1)C(Cl)(Cl)Cl (stereo not given) | inactive: 5
34 | O=C(O)CNc1ccc([As](=O)(O)O)cc1 | inactive: 4
35 | O=[N+]([O-])c1cccc(NC2=NCC(CBr)S2)c1 (stereo not given) | inactive: 5
36 | O=C(Nc1cc([As](=O)(O)O)ccc1O)c1ccccc1 | inactive: 8
37 | O=[As](O)(c1ccccc1)c1ccc(O)cc1 | inactive: 6
38 | CC(=O)NC(SC(=S)N(C)C)C(Cl)(Cl)Cl (stereo not given) | inactive: 11
39 | O=[N+]([O-])c1ncn(CCn2cnc([N+](=O)[O-])n2)n1 | inactive: 10
40 | O=C(OC1CN2CCC1CC2)c1cccc(Cl)c1 (stereo not given) | inactive: 11
41 | Nc1ccc([As](=O)(O)c2ccc([N+](=O)[O-])cc2)cc1 | inactive: 5
42 | C(Cc1nn[nH]n1)Cc1nn[nH]n1 | inactive: 7
43 | O=P(Nc1ccccn1)(c1ccc(Br)cc1)c1ccc(Br)cc1 | inactive: 9
44 | O=P(Nc1nc2ccccc2s1)(c1ccccc1)c1ccccc1 | inactive: 6
45 | C[C@H]1OP(=O)(Oc2ccccc2)[C@H](O)[C@H](O)[C@H]1N=[N+]=[N-] (stereo not given in full) | inactive: 8
46 | CC(C)C(=O)NC(Sc1ccccc1)C(Cl)(Cl)Cl (stereo not given) | inactive: 19
47 | O=P(Nc1nccs1)(c1ccccc1)c1ccccc1 | inactive: 17
48 | c1nnnn1CCn1cnnn1 | inactive: 17

Row | Compound | fluorescence (KMESF)
49 | C[C@@H]1C=CCP(=O)(Oc2ccccc2)O1 (stereo not given in full) | inactive: 8
50 | C[C@H]1OP(=O)(Oc2ccccc2)C[C@@H]2O[C@@H]21 (stereo not given in full) | inactive: 9
51 | CC(=O)Nc1ccc([As](=O)(O)O)c(O)c1 | inactive: 9
52 | CC(=O)Nc1ccc(Oc2c([N+](=O)[O-])cc([N+](=O)[O-])cc2[N+](=O)[O-])cc1 | inactive: 10
53 | O=P1(Nc2nc3ccc(Cl)cc3s2)COc2ccccc2O1 (stereo not given) | inactive: 5
54 | CCOc1ccc(C2=NCC(CBr)S2)cc1 (stereo not given) | inactive: 9
55 | CC(C)(C)C(=O)NC(Sc1ccccc1)C(Cl)(Cl)Cl (stereo not given) | inactive: 9
56 | CCC(=O)N1C2C3N(C(=O)CC)C1C1N(C(=O)CC)C(C(N1C(=O)CC)N3C(=O)CC)N2C(=O)CC | inactive: 3
57 | COC(=O)c1cc2c(s1)N=C(c1ccccc1)N(C)P2(=O)N1CCOCC1 (stereo not given) | inactive: 20
58 | CC(=O)NC(SC(=S)N(CC(C)C)CC(C)C)C(Cl)(Cl)Cl (stereo not given) | inactive: 10
59 | Cc1ccc(OP(=O)(Nc2ccccn2)Oc2ccc(C)cc2)cc1 | inactive: 19
60 | Cc1ccccc1OP(=O)(Nc1ccccn1)Oc1ccccc1C | inactive: 7
61 | CN(C)C(=O)Oc1noc2ccccc12 | inactive: 7
62 | O=c1c2cc([N+](=O)[O-])ccc2[nH]c2c([N+](=O)[O-])cc([N+](=O)[O-])cc12 | inactive: 9
63 | c1ccc(-c2nn[nH]n2)c(-c2nn[nH]n2)c1 | inactive: 6
64 | Cc1ccc(NP(=O)(Oc2cccc(C)c2)Oc2cccc(C)c2)nc1 | inactive: 7
65 | CCOC(=O)NC(Sc1ccccc1)C(Cl)(Cl)Cl (stereo not given) | inactive: 18
66 | CCNC(=S)/N=C(\N)N[N+](=O)[O-] | inactive: 7
67 | O=C(NC1CCS(=O)(=O)C1)NP(=S)(Oc1ccccc1)Oc1ccccc1 (stereo not given) | inactive: 9
68 | NC(=O)Nc1ccc([As](=O)(O)O)cc1 | inactive: 9
69 | CN(C(=O)Cc1ccccc1)[C@@H]1CC[C@]2(CCCO2)C[C@H]1N1CCCC1 | inactive: 7
70 | CCOP1(=S)c2c(C)nn(CCC#N)c2N=C(c2ccc(F)cc2)N1C (stereo not given) | inactive: 10
